Reference: article PMC6271714, “Hypotensive Effects and Angiotensin-Converting Enzyme Inhibitory Peptides of Reishi (Ganoderma lingzhi) Auto-Digested Extract” (Molecules, 2014)

Protein sequences, listed by entry. Tags and fused reporters are not part of them. Residues count along the entry.
UniProt P12821, 30-1306, species assumed: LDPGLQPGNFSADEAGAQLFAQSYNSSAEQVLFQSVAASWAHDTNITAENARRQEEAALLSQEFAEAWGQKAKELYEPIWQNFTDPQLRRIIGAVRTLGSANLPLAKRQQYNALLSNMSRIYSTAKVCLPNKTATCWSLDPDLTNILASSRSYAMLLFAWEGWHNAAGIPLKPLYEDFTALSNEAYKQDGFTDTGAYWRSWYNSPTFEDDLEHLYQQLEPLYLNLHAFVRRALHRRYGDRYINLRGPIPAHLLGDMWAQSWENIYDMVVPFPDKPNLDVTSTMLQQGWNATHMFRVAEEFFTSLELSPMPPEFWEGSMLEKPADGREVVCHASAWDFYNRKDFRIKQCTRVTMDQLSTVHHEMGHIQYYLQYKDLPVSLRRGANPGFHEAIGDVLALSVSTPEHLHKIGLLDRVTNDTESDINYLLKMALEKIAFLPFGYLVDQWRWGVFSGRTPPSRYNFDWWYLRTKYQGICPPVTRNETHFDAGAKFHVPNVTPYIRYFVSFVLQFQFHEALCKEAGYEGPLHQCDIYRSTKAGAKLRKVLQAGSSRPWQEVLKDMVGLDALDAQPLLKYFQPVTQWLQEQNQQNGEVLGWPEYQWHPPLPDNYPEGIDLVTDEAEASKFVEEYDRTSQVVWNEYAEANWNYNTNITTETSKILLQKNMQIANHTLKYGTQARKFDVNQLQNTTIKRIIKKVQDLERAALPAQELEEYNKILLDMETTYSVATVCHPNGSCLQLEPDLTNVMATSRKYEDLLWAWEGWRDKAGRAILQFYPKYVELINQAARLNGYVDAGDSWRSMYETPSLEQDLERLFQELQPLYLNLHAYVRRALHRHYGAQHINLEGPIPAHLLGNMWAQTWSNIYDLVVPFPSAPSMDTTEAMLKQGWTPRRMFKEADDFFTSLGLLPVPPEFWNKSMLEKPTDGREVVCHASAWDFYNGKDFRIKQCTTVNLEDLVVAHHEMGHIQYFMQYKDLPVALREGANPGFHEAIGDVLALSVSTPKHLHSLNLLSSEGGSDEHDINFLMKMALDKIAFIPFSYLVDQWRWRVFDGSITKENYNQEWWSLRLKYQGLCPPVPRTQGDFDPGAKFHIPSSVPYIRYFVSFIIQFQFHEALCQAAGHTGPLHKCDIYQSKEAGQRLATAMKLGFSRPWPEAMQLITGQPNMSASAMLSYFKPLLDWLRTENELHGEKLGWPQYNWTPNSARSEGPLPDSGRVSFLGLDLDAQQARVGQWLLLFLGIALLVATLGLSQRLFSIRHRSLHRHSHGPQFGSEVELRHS

Molecular target: T1, Angiotensin-Converting Enzyme (ACE) (Homo sapiens, UniProt P12821)
T1 construct: purchased Dojindo Laboratories ACE Kit-WST A502
Experiment: ACE inhibition assay (Dojindo ACE Kit-WST A502)
Assay type: biochemical
Conditions: synthesized peptides, six concentrations 10 to 100 μg/mL; read-out: IC50 Values (μM), ACE inhibition capacity
Method: Dojindo ACE Kit-WST A502 was used for testing the ACE-inhibitory activity. Principles of the kit were described in details in a previous report. Testing procedures were run strictly according to the manufacturer’s instructions using a 96-well plate, and inhibition rate was calculated based on the comparison of optical absorbance of sample-treated wells (As), control wells (Ac) and blank wells (Ab) as in the equation below. Absorbance was measured at 450 nm using microplate reader-Biotek-ELX800 (BioTek, Winooski, VT, USA): Inhibition rate (%) = [(Ac − As)/(Ac − Ab)]×100 (1)
For the peptides, six different concentrations of each peptide, ranging from 10 to 100 μg/mL, were assayed, and dose-response curves were plotted for the calculation of the IC50 values. IPP has been proven to be an ACE inhibitor [34] and thus was used as positive control (at concentrations ranging from 0.15 to 5 μg/mL).

IC50: < 0.5 µM
SMILES: CC[C@H](C)[C@H](N)C(=O)N1CCC[C@H]1C(=O)N1CCC[C@H]1C(=O)O [Ile-Pro-Pro, Isoleucine-Proline-Proline, reference compound]
